The text below walks through data of ChEMBL document CHEMBL1131619, “32-Ascomycinyloxyacetic acid derived immunosuppressants. Independence of immunophilin binding and immunosuppressive potency” (J Med Chem, 1998).

Chains of the proteins cited; added tags and fusions are not shown.
UniProt P62942, whole entry: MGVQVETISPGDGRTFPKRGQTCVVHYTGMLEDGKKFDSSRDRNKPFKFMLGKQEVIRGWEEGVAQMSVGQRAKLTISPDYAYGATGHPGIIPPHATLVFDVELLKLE

The assay deals with Peptidyl-prolyl cis-trans isomerase FKBP1A (Homo sapiens, UniProt P62942). The experiment in a line: Inhibitory selectivity for human FK506 binding protein 12 and human mixed lymphocyte response(MLR). Format: functional.
For the compound `CCOC(=O)CO[C@@H]1CCC(/C=C(\C)[C@H]2OC(=O)[C@@H]3CCCCN3C(=O)C(=O)[C@]3(O)O[C@H]([C@@H](OC)C[C@@H](C)C/C(C)=C/[C@@H](CC)C(=O)C[C@H](O)[C@H]2C)[C@@H](OC)C[C@H]3C)C[C@H]1OC` (some centres not stated), the Selectivity came out at 10.
The same measure for `CC[C@@H]1/C=C(\C)C[C@H](C)C[C@H](OC)[C@H]2O[C@@](O)(C(=O)C(=O)N3CCCC[C@H]3C(=O)O[C@H](/C(C)=C/C3CC[C@@H](OCC(=O)Nc4ccc(O)cc4)[C@H](OC)C3)[C@H](C)[C@@H](O)CC1=O)[C@H](C)C[C@@H]2OC` (some centres not stated): 110; for `CC[C@@H]1/C=C(\C)C[C@H](C)C[C@H](OC)[C@H]2O[C@@](O)(C(=O)C(=O)N3CCCC[C@H]3C(=O)O[C@H](/C(C)=C/C3CC[C@@H](OCC(=O)Nc4ccc(Cl)c(Cl)c4)[C@H](OC)C3)[C@H](C)[C@@H](O)CC1=O)[C@H](C)C[C@@H]2OC` (some centres not stated): 910.
Turning to `CC[C@@H]1/C=C(\C)C[C@H](C)C[C@H](OC)[C@H]2O[C@@](O)(C(=O)C(=O)N3CCCC[C@H]3C(=O)O[C@H](/C(C)=C/C3CC[C@@H](OCC(=O)Nc4ccc(OC)cc4)[C@H](OC)C3)[C@H](C)[C@@H](O)CC1=O)[C@H](C)C[C@@H]2OC` (some centres not stated), the Selectivity was found to be 1300.
The compound `CC[C@@H]1/C=C(\C)C[C@H](C)C[C@H](OC)[C@H]2O[C@@](O)(C(=O)C(=O)N3CCCC[C@H]3C(=O)O[C@H](/C(C)=C/C3CC[C@@H](OCC(=O)Nc4cccc(C(F)(F)F)c4)[C@H](OC)C3)[C@H](C)[C@@H](O)CC1=O)[C@H](C)C[C@@H]2OC` (some centres not stated) gave a Selectivity of 3400.
The result for `CC[C@@H]1/C=C(\C)C[C@H](C)C[C@H](OC)[C@H]2O[C@@](O)(C(=O)C(=O)N3CCCC[C@H]3C(=O)O[C@H](/C(C)=C/C3CC[C@@H](OCC(=O)Nc4cccc(F)c4)[C@H](OC)C3)[C@H](C)[C@@H](O)CC1=O)[C@H](C)C[C@@H]2OC` (some centres not stated) reads 2500.
As to `CC[C@@H]1/C=C(\C)C[C@H](C)C[C@H](OC)[C@H]2O[C@@](O)(C(=O)C(=O)N3CCCC[C@H]3C(=O)O[C@H](/C(C)=C/C3CC[C@@H](OCC(=O)NC4CCCCC4)[C@H](OC)C3)[C@H](C)[C@@H](O)CC1=O)[C@H](C)C[C@@H]2OC` (some centres not stated), the Selectivity amounted to 4.3.
On to `CC[C@@H]1/C=C(\C)C[C@H](C)C[C@H](OC)[C@H]2O[C@@](O)(C(=O)C(=O)N3CCCC[C@H]3C(=O)O[C@H](/C(C)=C/C3CC[C@@H](OCC(N)=O)[C@H](OC)C3)[C@H](C)[C@@H](O)CC1=O)[C@H](C)C[C@@H]2OC` (some centres not stated), for which the Selectivity amounted to 4.6.
For `CC[C@@H]1/C=C(\C)C[C@H](C)C[C@H](OC)[C@H]2O[C@@](O)(C(=O)C(=O)N3CCCC[C@H]3C(=O)O[C@H](/C(C)=C/C3CC[C@@H](OCC(=O)Nc4ccncc4)[C@H](OC)C3)[C@H](C)[C@@H](O)CC1=O)[C@H](C)C[C@@H]2OC` (some centres not stated), the Selectivity is 20.
In turn, `CC[C@@H]1/C=C(\C)C[C@H](C)C[C@H](OC)[C@H]2O[C@@](O)(C(=O)C(=O)N3CCCC[C@H]3C(=O)O[C@H](/C(C)=C/C3CC[C@@H](OCC(=O)Nc4cccnc4)[C@H](OC)C3)[C@H](C)[C@@H](O)CC1=O)[C@H](C)C[C@@H]2OC` (some centres not stated) registered a Selectivity of 33.
The same measure for `CC[C@@H]1/C=C(\C)C[C@H](C)C[C@H](OC)[C@H]2O[C@@](O)(C(=O)C(=O)N3CCCC[C@H]3C(=O)O[C@H](/C(C)=C/C3CC[C@@H](OCC(=O)Nc4ccc(F)cc4)[C@H](OC)C3)[C@H](C)[C@@H](O)CC1=O)[C@H](C)C[C@@H]2OC` (some centres not stated): 1500; for `CC[C@@H]1/C=C(\C)C[C@H](C)C[C@H](OC)[C@H]2O[C@@](O)(C(=O)C(=O)N3CCCC[C@H]3C(=O)O[C@H](/C(C)=C/C3CC[C@@H](OCC(=O)NCCc4ccccc4)[C@H](OC)C3)[C@H](C)[C@@H](O)CC1=O)[C@H](C)C[C@@H]2OC` (some centres not stated): 38.
The same measure for `CC[C@@H]1/C=C(\C)C[C@H](C)C[C@H](OC)[C@H]2O[C@@](O)(C(=O)C(=O)N3CCCC[C@H]3C(=O)O[C@H](/C(C)=C/C3CC[C@@H](OCC(=O)Nc4ccc(N5CCOCC5)cc4)[C@H](OC)C3)[C@H](C)[C@@H](O)CC1=O)[C@H](C)C[C@@H]2OC` (some centres not stated): 33.
`CC[C@@H]1/C=C(\C)C[C@H](C)C[C@H](OC)[C@H]2O[C@@](O)(C(=O)C(=O)N3CCCC[C@H]3C(=O)O[C@H](/C(C)=C/C3CC[C@@H](OCC(=O)N(C)Cc4ccccc4)[C@H](OC)C3)[C@H](C)[C@@H](O)CC1=O)[C@H](C)C[C@@H]2OC` (some centres not stated) registered a Selectivity of 62.
Turning to `CC[C@@H]1/C=C(\C)C[C@H](C)C[C@H](OC)[C@H]2O[C@@](O)(C(=O)C(=O)N3CCCC[C@H]3C(=O)O[C@H](/C(C)=C/C3CC[C@@H](OCC(=O)NCc4ccccc4)[C@H](OC)C3)[C@H](C)[C@@H](O)CC1=O)[C@H](C)C[C@@H]2OC` (some centres not stated), the Selectivity was found to be 61.
The same measure for `CC[C@@H]1/C=C(\C)C[C@H](C)C[C@H](OC)[C@H]2O[C@@](O)(C(=O)C(=O)N3CCCCC3C(=O)O[C@H](/C(C)=C/C3CC[C@@H](OCC(=O)OCc4ccccc4)[C@H](OC)C3)[C@H](C)[C@@H](O)CC1=O)[C@H](C)C[C@@H]2OC` (some centres not stated): 8.9; for `CC[C@@H]1/C=C(\C)C[C@H](C)C[C@H](OC)[C@H]2O[C@@](O)(C(=O)C(=O)N3CCCC[C@H]3C(=O)O[C@H](/C(C)=C/C3CC[C@@H](OCC(=O)Nc4ccc(C(F)(F)F)cc4)[C@H](OC)C3)[C@H](C)[C@@H](O)CC1=O)[C@H](C)C[C@@H]2OC` (some centres not stated): 2700.
